Experimental data: PubChem BioAssay AID1619 (SRMLSC, 2009)
The list shows a part of the results, in another mix than the full data. Measured potencies and affinities stand elsewhere. Some of these compounds have results that are not shown, active ones among them. Activity calls are given as the source filed them.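 Rule for the calls: active = compound inhibiting the enzyme by more than half at any dose during confirmatory dose-response retesting; inconclusive = strong single-dose inhibitors picked by rank but not retested; inactive = the rest.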

Amino acid sequences for entries named in this document (tags omitted).
UniProt Q8IL11, whole entry: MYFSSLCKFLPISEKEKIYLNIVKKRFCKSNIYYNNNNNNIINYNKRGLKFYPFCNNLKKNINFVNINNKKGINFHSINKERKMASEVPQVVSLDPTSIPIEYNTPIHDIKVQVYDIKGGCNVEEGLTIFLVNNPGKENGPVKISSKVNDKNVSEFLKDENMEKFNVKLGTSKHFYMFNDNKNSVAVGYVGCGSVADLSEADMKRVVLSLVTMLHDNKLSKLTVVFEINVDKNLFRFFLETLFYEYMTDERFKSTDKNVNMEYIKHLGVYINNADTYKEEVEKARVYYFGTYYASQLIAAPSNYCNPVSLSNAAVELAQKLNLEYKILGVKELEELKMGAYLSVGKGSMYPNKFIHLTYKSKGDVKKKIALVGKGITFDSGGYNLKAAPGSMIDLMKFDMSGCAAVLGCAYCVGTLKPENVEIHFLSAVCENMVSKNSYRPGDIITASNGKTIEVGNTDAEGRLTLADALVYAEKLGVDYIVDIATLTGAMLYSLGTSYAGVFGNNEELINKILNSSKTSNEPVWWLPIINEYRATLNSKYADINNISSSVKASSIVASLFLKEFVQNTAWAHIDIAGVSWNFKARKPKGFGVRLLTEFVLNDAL

biological target: Leucine aminopeptidase (Plasmodium falciparum (isolate 3D7)) (UniProt Q8IL11); assay: P. falciparum M17LAP inhibitors, primary screen, biochemical, fluorogenic H-Leu-NHMec substrate, 1536-well (AID 1619); details: recombinant M17LAP, H-Leu-NHMec fluorogenic kinetic assay; at 30 µM; active compounds read high;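 note: plate controls were full reaction with DMSO carrier for no effect and no enzyme background for full effect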

SMILES | inhibition
CCN(CC)CC(C)C(C)OC(=O)C(O)(c1ccccc1)c1ccccc1 (stereo unspecified) | inactive: 1.88%
CC(C)N1C(=O)CC2(CCN(CCOC(=O)C(O)(c3ccccc3)c3ccccc3)CC2)C1=O | inactive: -12.4%
O=C(NCC1(N2CCCCC2)CCCCC1)c1cc([N+](=O)[O-])ccc1Cl | inactive: 6.43%
CCN1CCCC(OC(=O)C2(O)c3ccccc3C=Cc3ccccc32)C1 (stereo unspecified) | inactive: -12%
C=CCN1CCN(CCOC(=O)C(O)(c2ccccc2)c2ccccc2)CC1 | inactive: -7.76%
CN(C)C1CCCC1OC(=O)C(O)(c1ccccc1)c1ccccc1 (stereo unspecified) | inactive: 1.76%
Cc1ccccc1C(=O)NCC1(N2CCCCC2)CCCCC1 | inactive: 2.86%
COc1cccc(C(=O)NCC2(N3CCCCC3)CCCCC2)c1 | inactive: -1.71%
CN(C)c1cccc(C(=O)NCC2(N(C)C)CCCCC2)c1 | inactive: 2.41%
COc1ccc(Br)c(C(=O)NCC2(N3CCCCC3)CCCCC2)c1 | inactive: -5.3%
O=C(OC1CN2CCC1CC2)C(CO)(c1ccccc1)c1ccccc1 (stereo unspecified) | inactive: 0.33%
